According to paper PMC5516987, “Safety and pharmacodynamics of dalazatide, a Kv1.3 channel inhibitor, in the treatment of plaque psoriasis: A randomized phase 1b trial” (PLoS ONE, 2017):

Tested on: patients with mild-to-moderate plaque psoriasis
Test: Treatment-emergent adverse events, phase 1b trial
Format: in vivo, human
Conditions: for Discontinuation due to AE / Patients with any AE / Patients with severe AE / Related AE: Chills / Related AE: Feeling hot / Related AE: Hypoesthesia / Related AE: Injection site pain / Related AE: Muscle contractions (involuntary) / Related AE: Muscle spasms / Related AE: Paresthesia / Related AE: Sensitivity of teeth / Patients with related AE: n = 10; for Patients with related AE: related = possible, probable or definite
Description: The trial was a double-blind (subject and investigator), placebo-controlled study conducted at two Canadian centers. The trial was conducted under an investigational new drug application approved by the US Food and Drug Administration and the Institutional Review Board, and was performed in accordance with the Declaration of Helsinki and with the applicable International Conference on Harmonization Guidelines. A total of 24 patients with active plaque psoriasis were randomized 5:5:2 to receive dalazatide at 30 mcg/dose, 60 mcg/dose, or placebo twice weekly by subcutaneous injection into the abdominal fat pad (9 doses total) (Fig 1; S1 CONSORT Checklist and S1 Protocol). The study randomization was prepared by Innovaderm using Medrio’s Electronic Data Capture system (San Francisco, CA). The sample size chosen for this study was based upon precedent set by other studies of a similar nature and was not based on power calculations. Patients were screened to assess their eligibility to enter the study within 30 days of the Day 1 (first-dose) visit. Dose administration and evaluation were on Days 1, 4, 8, 11, 15, 18, 22, 25, and 29. Additional follow-up evaluations were on Days 32, 43, and 57. This was a double-blind, placebo-controlled study. As such, except for the specifically designated unblinded study site clinical and ancillary staff, the Investigators and remaining study site clinical staff were blinded as to treatment. The unblended staff members were not involved in any on-study data collection. Patients were enrolled in the study beginning October 2014 and the last patient last visit was in March 2015.
Safety was assessed on the basis of vital signs (weight, blood pressure, pulse, oral temperature, and respiratory rate) and physical examination on all dose administration and evaluation days. A neurological exam was performed on Days 1 and 57. Laboratory testing (urinalysis, serum chemistry, and hematology) was performed on Days −1, 8, 15, 22, 25, and 57.

[1] = 30 mcg/dose SC twice weekly, 9 doses
[2] = 60 mcg/dose SC twice weekly, 9 doses
[3] = all dalazatide patients (30 and 60 mcg/dose pooled)

`CC[C@H](C)[C@@H]1NC(=O)[C@@H](NC(=O)[C@H](CO)NC(=O)[C@H](CCCNC(=N)N)NC(=O)COCCOCCNC(=O)[C@@H](N)Cc2ccc(OP(=O)(O)O)cc2)CSSC[C@@H](C(N)=O)NC(=O)[C@H]([C@@H](C)O)NC(=O)CNC(=O)[C@@H]2CSSC[C@@H]3NC(=O)[C@H](CCC(N)=O)NC(=O)[C@H](Cc4ccccc4)NC(=O)[C@H](C)NC(=O)[C@H]([C@@H](C)O)NC(=O)[C@H](CSSC[C@H](NC(=O)[C@H](Cc4ccccc4)NC(=O)[C@H](CO)NC(=O)[C@H](CC(C)C)NC(=O)[C@H](CCCNC(=N)N)NC(=O)[C@H](Cc4ccc(O)cc4)NC(=O)[C@H](CCCCN)NC(=O)[C@H](CCSC)NC(=O)[C@H](CO)NC(=O)[C@H](Cc4c[nH]cn4)NC(=O)[C@H](CCCCN)NC3=O)C(=O)N[C@@H](CCCNC(=N)N)C(=O)N[C@@H](CCCCN)C(=O)N[C@@H]([C@@H](C)O)C(=O)N2)NC(=O)[C@H](CCCNC(=N)N)NC(=O)[C@H](CO)NC(=O)[C@H](CCCCN)NC(=O)[C@@H]2CCCN2C(=O)[C@H]([C@@H](C)CC)NC(=O)[C@H]([C@@H](C)O)NC(=O)[C@H](CC(=O)O)NC1=O` [Dalazatide] was tested, and the “Serious adverse events or discontinuation of treatment” value (30 and 60 mcg/dose SC twice weekly, 9 doses) was “no serious adverse events or discontinuation of treatment occurred”, the “Discontinuation due to AE” value [1] was 0 n (%) and the “Patients with any AE” value [1] was 10 (100) n (%). The “Patients with severe AE” value [1] was 0 n (%), the “Related AE: Chills” value [1] was 1 (10) n (%) and the “Related AE: Feeling hot” value [1] was 0 n (%). The “Related AE: Hypoesthesia” value [1] was 9 (90) n (%), the “Related AE: Injection site pain” value [1] was 1 (10) n (%) and the “Related AE: Muscle contractions (involuntary)” value [1] was 0 n (%). For the same compound, the “Related AE: Muscle spasms” value [1] was 4 (40) n (%), the “Related AE: Paresthesia” value [1] was 7 (70) n (%) and the “Related AE: Sensitivity of teeth” value [1] was 0 n (%). The “Patients with related AE” value [1] was 10 (100) n (%), the “Discontinuation due to AE” value [2] was 0 n (%) and the “Patients with any AE” value [2] was 10 (100) n (%). For the same compound, the “Patients with severe AE” value [2] was 0 n (%), the “Related AE: Chills” value [2] was 2 (20) n (%) and the “Related AE: Feeling hot” value [2] was 2 (20) n (%). The “Related AE: Hypoesthesia” value [2] was 8 (80) n (%), the “Related AE: Injection site pain” value [2] was 3 (30) n (%) and the “Related AE: Muscle contractions (involuntary)” value [2] was 2 (20) n (%). For the same compound, the “Related AE: Muscle spasms” value [2] was 3 (30) n (%), the “Related AE: Paresthesia” value [2] was 7 (70) n (%) and the “Related AE: Sensitivity of teeth” value [2] was 4 (40) n (%). The “Patients with related AE” value [2] was 10 (100) n (%), the Patients with headache [3] was 15% and the “Patients with muscle spasms” value [3] was 35%. The Patients with nasopharyngitis [3] was 30%, the “Patients with sensitivity of teeth” value [3] was 20% and the Patients with hypoesthesia (all dalazatide patients (30 and 60 mcg/dose pooled), mild (Grade 1), temporary) was 85%. The Patients with paresthesia (all dalazatide patients (30 and 60 mcg/dose pooled), mild (Grade 1), hands, feet or perioral area) was 70% and the “Laboratory abnormalities and changes in vital signs” value (over the course of the study) was “No significant laboratory abnormalities or changes in vital signs”.
